Target: T1, hCA I (Homo sapiens, UniProt P00915)
T1 construct: made in house
Experiment: stopped-flow CO2 hydrase assay, hCA I
Format: biochemical

Amino acid sequences for entries named in this document (tags omitted). A change or cut given only in a name is not applied to a line headed by its entry.
UniProt P00915: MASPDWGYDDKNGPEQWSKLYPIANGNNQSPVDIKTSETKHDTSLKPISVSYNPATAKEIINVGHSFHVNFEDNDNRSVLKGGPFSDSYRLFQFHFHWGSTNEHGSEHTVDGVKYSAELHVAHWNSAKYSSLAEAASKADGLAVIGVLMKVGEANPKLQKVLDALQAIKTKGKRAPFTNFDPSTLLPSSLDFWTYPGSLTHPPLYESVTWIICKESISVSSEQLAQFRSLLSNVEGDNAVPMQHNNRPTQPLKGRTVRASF

For NCC(=O)Nc1ccc(S(N)(=O)=O)cc1 [compound 10, 2‐amino‐N‐(4‐sulfamoylphenyl)acetamide], the Ki was 390 nM.
